Entries after “also recorded” stand apart in the source; their conditions may differ.
Tests used:
[1] = tested on: patients with severe TRMD; settings: human, in vivo
Text: The study was a single-center, double-blind, randomized placebo-controlled crossover trial. All subjects underwent three one-hour inhalation sessions in random order, each separated by at least 4 weeks. The sessions included: placebo (0% N20), 25% N20, and 50% N20 balanced with air/oxygen. Blinding was executed by separating locations and teams for inhalation treatments and psychiatric evaluations. Only the anesthesia team administering the inhalation treatments was aware of study group assignment; all other participants, including patients and raters, were blinded. […]
(§1) All three inhalation sessions were scheduled for one hour. […] Patients were monitored during and after the treatment according to American Society of Anesthesiologists standards which include continuous 3-lead ECG, pulse oximetry, non-invasive blood pressure, and end tidal CO2 measurement under the supervision of an attending-level anesthesiologist. After the one-hour treatment session, patients were monitored in a recovery room for up to one hour at which time a study team physician determined whether the patient met criteria for discharge.
Data were collected at (a) baseline (prior to each inhalation session), (b) 2-hours, (c) 24 hours, (d) 1 week, and (e) 2 weeks after inhalation. […] Additionally, adequacy of the blind was assessed by a Blinding Questionnaire given after completion of each inhalation session. […]

[2] = tested on: patients with severe TRMD; assay: Phase 2 double-blind randomized placebo-controlled crossover trial, single 1-hour inhalation; Hamilton Depression Rating Scale (HDRS-21, primary outcome); type: in vivo, human
Text: The study was a single-center, double-blind, randomized placebo-controlled crossover trial. All subjects underwent three one-hour inhalation sessions in random order, each separated by at least 4 weeks. The sessions included: placebo (0% N20), 25% N20, and 50% N20 balanced with air/oxygen. Blinding was executed by separating locations and teams for inhalation treatments and psychiatric evaluations. Only the anesthesia team administering the inhalation treatments was aware of study group assignment; all other participants, including patients and raters, were blinded. Likewise, the study setup was identical for all sessions, and gas flow meters were concealed, making inadvertent unblinding unlikely. The study was approved by the Washington University in St. Louis Institutional Review Board, and all patients provided written, informed consent. The trial was registered at clinicaltrials.gov (NCT03283670).
Patients were recruited from an existing database of TRMD patients identified through participation in a secondary referral clinic for TRMD at Washington University Department of Psychiatry, as well as from the “Volunteers for Health” patient pool (individuals with various medical/psychiatric conditions who volunteer to participate in clinical research) within Washington University School of Medicine. […] Patients were instructed to continue their current standard of care MDD treatment and to maintain a stable psychotropic medication dosage or psychotherapy regimen for 4 weeks prior to initiation of the study and throughout the study. Further, patients were instructed not to modify their antidepressant treatments during the three month course of the trial (i.e., discouraged from adding new antidepressants or modifying existing antidepressant dosages).
Following the in-person screen, each of the three treatment sessions consisted of […]: pre-inhalation mood assessment, inhalation, and post-inhalation follow-up sessions at 22-28 hours, 1 week, and 2 weeks. An additional assessment was completed 4 weeks following the final inhalation treatment.
as §1, with “hour. […] Except for the choice of inhalational gas admixture, treatment sessions were otherwise identical. The gas mix was administered via a standard anesthesia facemask through tubing connected to the anesthesia machine or an FDA-approved Porter/Praxair MXR breathing circuit. A small sample connector line was inserted into the facemask allowing the measurement of inhaled and exhaled gas concentrations.” for “hour.”
Data were collected at (a) baseline (prior to each inhalation session), (b) 2-hours, (c) 24 hours, (d) 1 week, and (e) 2 weeks after inhalation. Efficacy of the inhalation treatment on mood was measured using the following: Hamilton Depression Rating Scale 21-item (HDRS-21; primary outcome); Montgomery-Asberg Depression Rating Scale (MADRS); Quick Inventory of Depressive Symptomology-Self Report (QIDS-SR); and the Profile of Mood States 2nd Edition (POMS-2).

[3] = after 50% nitrous oxide, 95% CI 0.57-18.02

SMILES: [N-]=[N+]=O [nitrous oxide]
- Shoulder/Arm Pain [1]: 1 (4%)
- Overall effect of nitrous oxide (both groups) compared to placebo on the primary outcome (HDRS-21) ([2]; 25% and 50% groups together, two weeks of observation, p=0.01): significantly improved depressive symptoms versus placebo; also recorded: significant
- Linear increase of effect over time relative to placebo (HDRS-21) ([2]; 25% nitrous oxide group): −1.38 per measurement occasion
- Linear increase of effect over time relative to placebo (HDRS-21) ([2]; 50% nitrous oxide group): −1.55 per measurement occasion
- Relative risk (RR) of remission ([2]; after 25% nitrous oxide, 95% CI 0.27-12.84): 1.82
- Relative risk (RR) of treatment response ([2]; after 25% nitrous oxide, 95% CI 0.43-16.30): 2.50
- Relative risk (RR) of remission [2, 3]: 2.94
- Relative risk (RR) of treatment response [2, 3]: 2.94
- Duration of antidepressant effects ([2]; single one-hour inhalation, 25% or 50%): up to four weeks; also recorded: between two and four weeks
- Difference between 25% and 50% nitrous oxide on HDRS-21 ([2]; two weeks of observation, p=0.58): no statistically significant difference

From patent US20220313728A1, “COMPOSITIONS AND METHODS FOR TREATING TREATMENT-RESISTANT DEPRESSIVE DISORDERS WITH NITROUS OXIDE” (priority 2021, published 2022)
